One block for each compound: values may come before it. Activity calls are given as the source filed them. The rule behind the calls is not given here.
What was measured:
[1] = target: T1, Trace amine-associated receptor 1 (Homo sapiens) (UniProt Q96RJ0); assay: Agonist activity at human TAAR1 extracted from CHO-K1 cell membrane coexpressing AGTRL1/Gi by measuring maximum efficacy at 0 to 100 uM by cAMP assay relative to control; type: functional, cell membranes; conditions: filed as agonist, dose 0-100 µM
T1 sequence (whole entry): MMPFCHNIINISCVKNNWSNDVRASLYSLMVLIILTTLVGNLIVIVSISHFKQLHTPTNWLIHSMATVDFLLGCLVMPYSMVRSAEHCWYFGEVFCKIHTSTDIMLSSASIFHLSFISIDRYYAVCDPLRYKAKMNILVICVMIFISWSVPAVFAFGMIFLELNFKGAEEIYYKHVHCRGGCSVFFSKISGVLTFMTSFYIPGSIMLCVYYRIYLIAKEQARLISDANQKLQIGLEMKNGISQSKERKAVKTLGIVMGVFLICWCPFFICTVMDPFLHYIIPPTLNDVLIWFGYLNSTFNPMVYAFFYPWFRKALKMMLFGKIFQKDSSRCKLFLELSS

By UniProt entry, the sequences of proteins in these tests, tags left out. Where a name states a change or a piece, a line headed by the entry shows the natural chain unless it says otherwise.
UniProt P28335: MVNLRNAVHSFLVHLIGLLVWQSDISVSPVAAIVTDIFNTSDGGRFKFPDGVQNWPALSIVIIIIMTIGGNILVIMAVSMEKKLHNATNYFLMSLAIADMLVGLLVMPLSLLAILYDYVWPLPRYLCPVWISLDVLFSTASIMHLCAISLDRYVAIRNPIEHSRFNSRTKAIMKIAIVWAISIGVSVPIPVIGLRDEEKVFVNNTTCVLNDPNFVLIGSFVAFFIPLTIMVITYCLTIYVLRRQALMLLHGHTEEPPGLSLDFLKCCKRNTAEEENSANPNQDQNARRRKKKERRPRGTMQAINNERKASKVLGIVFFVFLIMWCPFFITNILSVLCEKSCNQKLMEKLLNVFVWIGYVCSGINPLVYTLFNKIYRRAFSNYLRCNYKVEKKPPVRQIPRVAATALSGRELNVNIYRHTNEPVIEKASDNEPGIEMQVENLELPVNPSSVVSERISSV
UniProt P33261, whole entry: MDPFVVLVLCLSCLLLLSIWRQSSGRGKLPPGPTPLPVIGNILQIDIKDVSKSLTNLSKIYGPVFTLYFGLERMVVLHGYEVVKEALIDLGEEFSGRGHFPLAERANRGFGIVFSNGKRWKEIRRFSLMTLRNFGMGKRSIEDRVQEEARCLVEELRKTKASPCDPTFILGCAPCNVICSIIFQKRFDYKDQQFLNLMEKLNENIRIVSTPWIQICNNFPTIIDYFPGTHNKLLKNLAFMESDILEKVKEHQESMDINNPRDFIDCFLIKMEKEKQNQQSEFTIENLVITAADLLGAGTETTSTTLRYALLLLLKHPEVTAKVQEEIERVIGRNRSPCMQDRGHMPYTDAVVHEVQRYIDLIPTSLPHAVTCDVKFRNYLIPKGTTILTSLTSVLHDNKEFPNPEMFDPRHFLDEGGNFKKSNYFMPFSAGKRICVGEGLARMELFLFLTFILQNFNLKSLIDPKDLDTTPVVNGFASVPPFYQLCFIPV
UniProt P05177, whole entry: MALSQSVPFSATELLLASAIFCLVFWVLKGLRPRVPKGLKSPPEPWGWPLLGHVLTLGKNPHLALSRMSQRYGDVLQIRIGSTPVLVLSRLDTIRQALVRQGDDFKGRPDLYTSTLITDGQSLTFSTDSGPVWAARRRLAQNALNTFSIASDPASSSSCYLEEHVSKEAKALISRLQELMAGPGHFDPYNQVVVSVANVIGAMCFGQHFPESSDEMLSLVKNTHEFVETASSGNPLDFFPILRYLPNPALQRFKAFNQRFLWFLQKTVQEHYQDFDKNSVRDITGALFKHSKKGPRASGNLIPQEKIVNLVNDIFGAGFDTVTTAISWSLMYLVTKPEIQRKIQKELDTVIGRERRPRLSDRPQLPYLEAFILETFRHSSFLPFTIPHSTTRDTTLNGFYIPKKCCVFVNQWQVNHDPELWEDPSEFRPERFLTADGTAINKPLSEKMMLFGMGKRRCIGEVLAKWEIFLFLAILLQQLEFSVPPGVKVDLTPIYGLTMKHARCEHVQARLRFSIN
UniProt P10632, whole entry: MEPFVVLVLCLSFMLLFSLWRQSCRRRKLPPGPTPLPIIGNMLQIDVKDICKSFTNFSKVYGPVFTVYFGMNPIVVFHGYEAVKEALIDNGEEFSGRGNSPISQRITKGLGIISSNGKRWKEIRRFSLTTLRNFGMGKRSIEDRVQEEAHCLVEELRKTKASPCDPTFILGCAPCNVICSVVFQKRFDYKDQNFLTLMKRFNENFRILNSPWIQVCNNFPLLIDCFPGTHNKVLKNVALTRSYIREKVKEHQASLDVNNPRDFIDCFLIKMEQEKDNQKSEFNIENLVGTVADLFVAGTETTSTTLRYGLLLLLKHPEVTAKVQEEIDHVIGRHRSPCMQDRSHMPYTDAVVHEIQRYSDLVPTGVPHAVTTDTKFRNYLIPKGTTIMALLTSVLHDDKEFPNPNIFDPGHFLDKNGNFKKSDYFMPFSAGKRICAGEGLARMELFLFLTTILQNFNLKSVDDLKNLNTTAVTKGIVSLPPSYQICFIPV
UniProt P08908, whole entry: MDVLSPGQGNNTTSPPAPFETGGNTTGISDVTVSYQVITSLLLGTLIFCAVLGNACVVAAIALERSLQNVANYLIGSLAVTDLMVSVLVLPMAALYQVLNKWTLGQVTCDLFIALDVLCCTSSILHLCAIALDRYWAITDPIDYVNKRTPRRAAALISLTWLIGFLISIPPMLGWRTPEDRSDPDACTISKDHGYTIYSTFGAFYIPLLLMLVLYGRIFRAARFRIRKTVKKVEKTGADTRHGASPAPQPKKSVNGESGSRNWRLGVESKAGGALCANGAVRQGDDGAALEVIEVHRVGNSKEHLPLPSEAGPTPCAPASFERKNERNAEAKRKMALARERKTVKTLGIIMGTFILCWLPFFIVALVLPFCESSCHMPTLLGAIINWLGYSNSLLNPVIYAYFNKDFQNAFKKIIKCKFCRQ
UniProt P11712, whole entry: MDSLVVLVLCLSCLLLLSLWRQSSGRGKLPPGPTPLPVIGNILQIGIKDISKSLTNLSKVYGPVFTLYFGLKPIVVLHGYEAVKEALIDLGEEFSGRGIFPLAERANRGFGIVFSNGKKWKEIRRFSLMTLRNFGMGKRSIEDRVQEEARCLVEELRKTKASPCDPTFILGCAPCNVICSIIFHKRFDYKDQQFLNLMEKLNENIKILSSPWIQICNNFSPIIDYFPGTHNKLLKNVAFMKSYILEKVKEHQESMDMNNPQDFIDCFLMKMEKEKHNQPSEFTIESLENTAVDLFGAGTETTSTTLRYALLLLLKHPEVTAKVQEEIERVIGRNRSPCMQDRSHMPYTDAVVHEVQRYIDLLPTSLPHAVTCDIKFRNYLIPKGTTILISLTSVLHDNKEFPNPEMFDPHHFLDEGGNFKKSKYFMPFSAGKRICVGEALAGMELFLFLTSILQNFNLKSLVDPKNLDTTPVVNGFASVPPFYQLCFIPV
UniProt P34969, whole entry: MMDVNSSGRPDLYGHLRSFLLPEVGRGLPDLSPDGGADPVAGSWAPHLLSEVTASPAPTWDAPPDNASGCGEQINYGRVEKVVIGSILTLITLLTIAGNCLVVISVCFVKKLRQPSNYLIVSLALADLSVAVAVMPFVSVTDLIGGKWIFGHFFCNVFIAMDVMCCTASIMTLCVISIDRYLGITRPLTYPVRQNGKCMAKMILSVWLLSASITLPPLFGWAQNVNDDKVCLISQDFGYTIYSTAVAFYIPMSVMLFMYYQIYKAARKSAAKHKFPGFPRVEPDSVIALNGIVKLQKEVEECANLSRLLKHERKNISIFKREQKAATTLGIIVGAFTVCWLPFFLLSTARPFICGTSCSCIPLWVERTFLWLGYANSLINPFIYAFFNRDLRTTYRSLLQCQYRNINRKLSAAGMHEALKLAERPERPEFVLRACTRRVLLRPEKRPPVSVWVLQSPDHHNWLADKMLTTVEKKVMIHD
UniProt P08684, whole entry: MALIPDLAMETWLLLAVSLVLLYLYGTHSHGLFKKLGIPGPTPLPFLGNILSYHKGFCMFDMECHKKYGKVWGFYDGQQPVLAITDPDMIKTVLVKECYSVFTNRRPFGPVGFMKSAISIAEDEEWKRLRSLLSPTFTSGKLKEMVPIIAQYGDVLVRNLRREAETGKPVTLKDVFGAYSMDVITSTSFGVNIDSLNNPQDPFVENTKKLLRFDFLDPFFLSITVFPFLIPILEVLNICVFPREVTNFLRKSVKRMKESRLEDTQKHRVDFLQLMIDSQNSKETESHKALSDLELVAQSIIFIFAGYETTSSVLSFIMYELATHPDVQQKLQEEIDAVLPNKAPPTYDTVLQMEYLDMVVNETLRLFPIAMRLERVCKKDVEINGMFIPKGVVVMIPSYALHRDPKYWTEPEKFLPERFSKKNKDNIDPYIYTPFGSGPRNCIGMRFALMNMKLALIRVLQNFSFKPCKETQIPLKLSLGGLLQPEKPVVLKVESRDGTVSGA
UniProt P20813: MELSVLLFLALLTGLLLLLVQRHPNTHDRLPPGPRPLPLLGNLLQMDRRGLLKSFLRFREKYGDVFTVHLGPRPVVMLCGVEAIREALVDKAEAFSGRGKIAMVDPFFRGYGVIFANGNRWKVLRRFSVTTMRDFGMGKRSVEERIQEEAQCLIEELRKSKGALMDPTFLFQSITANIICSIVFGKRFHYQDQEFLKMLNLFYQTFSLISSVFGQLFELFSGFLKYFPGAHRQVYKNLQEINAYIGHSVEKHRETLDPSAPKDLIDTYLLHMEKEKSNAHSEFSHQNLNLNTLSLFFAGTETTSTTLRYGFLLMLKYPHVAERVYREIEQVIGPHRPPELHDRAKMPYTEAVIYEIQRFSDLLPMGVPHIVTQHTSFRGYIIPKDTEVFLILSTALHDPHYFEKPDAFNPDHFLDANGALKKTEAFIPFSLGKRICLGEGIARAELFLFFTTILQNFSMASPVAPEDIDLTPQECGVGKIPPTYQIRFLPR

[2] = target: T2, Trace amine-associated receptor 1 (Homo sapiens, UniProt Q96RJ0); assay: Agonist activity at human TAAR1 extracted from CHO-K1 cell membrane coexpressing AGTRL1/Gi by cAMP assay; type: functional, cell membranes
T2 sequence (Q96RJ0 whole entry): T1 sequence (whole entry)

[3] = Metabolic stability in rat liver microsomes assessed as intrinsic clearance at 1 uM incubated for 60 mins by LC-MS/MS analysis; type: ADME, Microsome; conditions: read-out: CLH
[4] = target: T3, 5-hydroxytryptamine receptor 2C (Homo sapiens, UniProt P28335); assay: Agonist activity at recombinant human 5-HT2CR expressed in HEK293 cells incubated for 2 hrs by measuring maximum efficacy by FLIPR calcium assay relative to control; type: functional, cell-based
Cytochrome P450 2C19 = Cytochrome P450 2C19 (Homo sapiens, UniProt P33261); assay: Inhibition of CYP2C19 in human liver microsomes in presence of NADPH by LC-MS/MS analysis; type: ADME, Microsome
[5] = Metabolic stability in human liver microsomes assessed as intrinsic clearance at 1 uM incubated for 60 mins by LC-MS/MS analysis; type: ADME, Microsome; conditions: read-out: CLH
[6] = Plasma protein binding in rat assessed as unbound fraction by LC-MS/MS analysis; type: ADME, cell-free
Cytochrome P450 1A2 = Cytochrome P450 1A2 (Homo sapiens, UniProt P05177); assay: Inhibition of CYP1A2 in human liver microsomes in presence of NADPH by LC-MS/MS analysis; type: ADME, Microsome
[7] = AUClast in male mouse at 10 mg/kg, IG measured after 24 hrs; type: ADME, organism-based; conditions: in vivo, po
[8] = Plasma protein binding in dog assessed as unbound fraction by LC-MS/MS analysis; type: ADME, cell-free, Canis lupus familiaris
Cytochrome P450 2C8 = Cytochrome P450 2C8 (Homo sapiens, UniProt P10632); assay: Inhibition of CYP2C8 in human liver microsomes in presence of NADPH by LC-MS/MS analysis; type: ADME, Microsome
[9] = target: T4, 5-hydroxytryptamine receptor 1A (Homo sapiens, UniProt P08908); assay: Agonist activity at human 5-HT1A expressed in CHO cells coexpressing Galpha15 by measuring maximum efficacy at 2 uM by FLIPR calcium assay relative to control; type: functional, cell-based
Mus musculus [10] = species on record: Mus musculus; assay: Antipsychotic activity against MK-801 induced hyperlocomotion in male C57BL/6J mouse model assessed as effective dose; type: functional
[11] = Inhibition of CYP2D6 in human liver microsomes in presence of NADPH by LC-MS/MS analysis; type: ADME, Microsome
Cytochrome P450 2C9 = Cytochrome P450 2C9 (Homo sapiens, UniProt P11712); assay: Inhibition of CYP2C9 in human liver microsomes in presence of NADPH by LC-MS/MS analysis; type: ADME, Microsome
[12] = target: T5, 5-hydroxytryptamine receptor 7 (Homo sapiens, UniProt P34969); assay: Agonist activity at recombinant human 5-HT7 expressed in HEK293 cells by measuring maximum efficacy at 2 uM by FLIPR calcium assay relative to control; type: functional, cell-based; conditions: filed as agonist
Cytochrome P450 3A4 = Cytochrome P450 3A4 (Homo sapiens, UniProt P08684); assay: Inhibition of CYP3A4 in human liver microsomes in presence of NADPH by LC-MS/MS analysis; type: ADME, Microsome
Mus musculus [13] = assay: Antipsychotic activity against DOI-induced head-twitch response in mouse assessed as reduction in head-twitch response at 10 mg/kg, IG measured for 30 mins; type: functional, organism-based
[14] = Plasma protein binding in human assessed as unbound fraction by LC-MS/MS analysis; type: ADME, cell-free
[15] = Metabolic stability in mouse liver microsomes assessed as intrinsic clearance at 1 uM incubated for 60 mins by LC-MS/MS analysis; type: ADME, Microsome; conditions: read-out: CLH
[16] = target: T5, 5-hydroxytryptamine receptor 7; assay: Agonist activity at recombinant human 5-HT7 expressed in HEK293 cells by FLIPR calcium assay; type: functional, cell-based
[17] = Apparent permeability across apical to basolateral side in human Caco-2 cells at 2 uM by LC-MS/MS analysis; type: ADME, cell-based
[18] = target: T4, 5-hydroxytryptamine receptor 1A; assay: Agonist activity at human 5-HT1A expressed in CHO cells coexpressing Galpha15 by FLIPR calcium assay; type: functional, cell-based
[19] = target: T3, 5-hydroxytryptamine receptor 2C; assay: Agonist activity at recombinant human 5-HT2CR expressed in HEK293 cells incubated for 2 hrs by FLIPR calcium assay; type: functional, cell-based
Cytochrome P450 2B6 = Cytochrome P450 2B6 (Homo sapiens, UniProt P20813); assay: Inhibition of CYP2B6 in human liver microsomes in presence of NADPH by LC-MS/MS analysis; type: ADME, Microsome

SMILES: c1cc2c(s1)[C@@H]1CNCCN1CC2
Emax [1]: 95.2%

SMILES: c1cc2c(s1)[C@H]1CNCCN1CC2
Emax [1]: 45.2%

EC50 [2]: 395 nM
SMILES: CCc1[nH]nc(C(=O)Nc2ccc([C@H]3CNCCO3)cc2)c1C [RALMITARONT]

SMILES: CNC[C@@H]1OCCc2ccsc21 [ULOTARONT]
CLint scaled at 1 µM [3]: < 13.5 mL/min/kg
Emax [4]: 30.5%
IC50 (Cytochrome P450 2C19): Not_determined
CLint scaled at 1 µM [5]: < 6.8 mL/min/kg
Emax [1]: 87.4%
fraction unbound [6]: 0.857
IC50 (Cytochrome P450 1A2): Not_determined
AUC(0-t) at 24 h [7]: 17.1 µM·h
fraction unbound [8]: 0.833
IC50 (Cytochrome P450 2C8): Not_determined
Emax [9]: 25.9%
ED50 (Mus musculus [10]): 3.8 mg/kg
IC50 [11]: Not_determined
IC50 (Cytochrome P450 2C9): Not_determined
Emax [12]: 54%
EC50 [2]: 349 nM
IC50 (Cytochrome P450 3A4): Not_determined
Activity (Mus musculus [13]): Active
fraction unbound [14]: 0.827
CLint scaled at 1 µM [15]: < 29.7 mL/min/kg
EC50 [16]: 590 nM
Papp A→B at 2 µM [17]: 30.1 ×10⁻⁶ cm/s
EC50 [18]: 19000 nM
EC50 [19]: 298000 nM
IC50 (Cytochrome P450 2B6): Not_determined

Source: ChEMBL document CHEMBL6109139, “Rational Design of the First Dual Agonist at Trace Amine-Associated Receptor 1 and 5-HT2C Receptors Based on Binding Pocket Similarity for the Treatment of Schizophrenia and Alzheimer's Disease-Related Psychosis” (J Med Chem, 2025)
